For twelve molecules, inhibition results are on record in ChEMBL document CHEMBL5579880, “Rational Design of a Novel 6H-Benzo[c]chromen Series as Selective PI3Kα Inhibitors” (J Med Chem, 2024).

The chains behind the UniProt entries cited, without tags or fusion partners. Where a name states a change or a piece, a line headed by the entry shows the natural chain unless it says otherwise.
UniProt P42336, whole entry: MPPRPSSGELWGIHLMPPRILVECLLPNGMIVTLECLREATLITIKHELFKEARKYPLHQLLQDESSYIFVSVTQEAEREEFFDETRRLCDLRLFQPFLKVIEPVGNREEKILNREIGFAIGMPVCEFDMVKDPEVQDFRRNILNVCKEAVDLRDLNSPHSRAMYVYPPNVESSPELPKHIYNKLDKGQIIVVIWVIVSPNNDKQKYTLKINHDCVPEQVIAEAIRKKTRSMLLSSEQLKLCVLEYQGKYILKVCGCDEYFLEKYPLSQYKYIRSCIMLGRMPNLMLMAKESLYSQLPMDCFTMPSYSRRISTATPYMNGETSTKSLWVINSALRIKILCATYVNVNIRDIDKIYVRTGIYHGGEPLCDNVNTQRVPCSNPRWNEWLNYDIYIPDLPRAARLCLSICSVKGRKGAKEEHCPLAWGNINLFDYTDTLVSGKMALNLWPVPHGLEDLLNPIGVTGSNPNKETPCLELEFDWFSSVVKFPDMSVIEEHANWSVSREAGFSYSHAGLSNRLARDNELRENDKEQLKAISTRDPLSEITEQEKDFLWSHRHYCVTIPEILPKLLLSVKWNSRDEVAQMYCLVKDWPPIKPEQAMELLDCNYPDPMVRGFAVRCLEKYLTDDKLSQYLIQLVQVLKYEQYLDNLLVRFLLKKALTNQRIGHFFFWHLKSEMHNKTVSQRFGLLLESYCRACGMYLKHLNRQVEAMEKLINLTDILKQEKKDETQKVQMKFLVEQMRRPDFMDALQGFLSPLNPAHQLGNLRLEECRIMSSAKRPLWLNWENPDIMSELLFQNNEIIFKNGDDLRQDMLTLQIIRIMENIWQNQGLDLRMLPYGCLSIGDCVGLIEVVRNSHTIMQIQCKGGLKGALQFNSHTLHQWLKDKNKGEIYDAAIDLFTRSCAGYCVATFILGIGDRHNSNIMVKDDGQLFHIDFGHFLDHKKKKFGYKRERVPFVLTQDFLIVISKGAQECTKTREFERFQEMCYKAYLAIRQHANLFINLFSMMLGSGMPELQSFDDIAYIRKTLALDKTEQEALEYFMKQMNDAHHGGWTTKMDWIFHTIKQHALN
UniProt P42338: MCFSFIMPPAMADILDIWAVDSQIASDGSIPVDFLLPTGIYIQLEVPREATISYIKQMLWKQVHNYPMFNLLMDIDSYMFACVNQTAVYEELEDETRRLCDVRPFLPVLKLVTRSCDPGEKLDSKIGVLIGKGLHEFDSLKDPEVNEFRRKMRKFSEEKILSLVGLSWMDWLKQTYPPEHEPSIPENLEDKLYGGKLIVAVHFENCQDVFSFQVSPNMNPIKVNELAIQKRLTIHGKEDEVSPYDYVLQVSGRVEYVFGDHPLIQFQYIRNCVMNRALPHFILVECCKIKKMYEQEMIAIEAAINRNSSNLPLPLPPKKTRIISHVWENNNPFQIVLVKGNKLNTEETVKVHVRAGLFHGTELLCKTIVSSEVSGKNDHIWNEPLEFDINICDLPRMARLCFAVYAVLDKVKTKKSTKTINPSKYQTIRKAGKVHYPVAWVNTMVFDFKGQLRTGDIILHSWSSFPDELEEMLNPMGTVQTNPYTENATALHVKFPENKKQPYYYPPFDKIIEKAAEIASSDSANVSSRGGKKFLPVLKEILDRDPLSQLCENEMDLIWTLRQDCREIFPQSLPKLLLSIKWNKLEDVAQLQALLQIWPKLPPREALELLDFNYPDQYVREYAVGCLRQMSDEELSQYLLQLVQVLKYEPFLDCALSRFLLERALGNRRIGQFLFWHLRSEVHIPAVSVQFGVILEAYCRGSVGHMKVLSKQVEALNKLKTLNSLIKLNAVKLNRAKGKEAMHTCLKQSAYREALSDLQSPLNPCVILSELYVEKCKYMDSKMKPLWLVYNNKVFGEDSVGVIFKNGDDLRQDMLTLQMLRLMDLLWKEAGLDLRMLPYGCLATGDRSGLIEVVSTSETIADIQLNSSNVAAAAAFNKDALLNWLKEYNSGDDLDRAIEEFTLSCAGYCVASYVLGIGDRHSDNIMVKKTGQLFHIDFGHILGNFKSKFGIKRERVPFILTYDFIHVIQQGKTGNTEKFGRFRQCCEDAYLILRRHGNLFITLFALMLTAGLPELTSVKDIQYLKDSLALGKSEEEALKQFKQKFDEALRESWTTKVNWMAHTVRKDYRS
UniProt P48736: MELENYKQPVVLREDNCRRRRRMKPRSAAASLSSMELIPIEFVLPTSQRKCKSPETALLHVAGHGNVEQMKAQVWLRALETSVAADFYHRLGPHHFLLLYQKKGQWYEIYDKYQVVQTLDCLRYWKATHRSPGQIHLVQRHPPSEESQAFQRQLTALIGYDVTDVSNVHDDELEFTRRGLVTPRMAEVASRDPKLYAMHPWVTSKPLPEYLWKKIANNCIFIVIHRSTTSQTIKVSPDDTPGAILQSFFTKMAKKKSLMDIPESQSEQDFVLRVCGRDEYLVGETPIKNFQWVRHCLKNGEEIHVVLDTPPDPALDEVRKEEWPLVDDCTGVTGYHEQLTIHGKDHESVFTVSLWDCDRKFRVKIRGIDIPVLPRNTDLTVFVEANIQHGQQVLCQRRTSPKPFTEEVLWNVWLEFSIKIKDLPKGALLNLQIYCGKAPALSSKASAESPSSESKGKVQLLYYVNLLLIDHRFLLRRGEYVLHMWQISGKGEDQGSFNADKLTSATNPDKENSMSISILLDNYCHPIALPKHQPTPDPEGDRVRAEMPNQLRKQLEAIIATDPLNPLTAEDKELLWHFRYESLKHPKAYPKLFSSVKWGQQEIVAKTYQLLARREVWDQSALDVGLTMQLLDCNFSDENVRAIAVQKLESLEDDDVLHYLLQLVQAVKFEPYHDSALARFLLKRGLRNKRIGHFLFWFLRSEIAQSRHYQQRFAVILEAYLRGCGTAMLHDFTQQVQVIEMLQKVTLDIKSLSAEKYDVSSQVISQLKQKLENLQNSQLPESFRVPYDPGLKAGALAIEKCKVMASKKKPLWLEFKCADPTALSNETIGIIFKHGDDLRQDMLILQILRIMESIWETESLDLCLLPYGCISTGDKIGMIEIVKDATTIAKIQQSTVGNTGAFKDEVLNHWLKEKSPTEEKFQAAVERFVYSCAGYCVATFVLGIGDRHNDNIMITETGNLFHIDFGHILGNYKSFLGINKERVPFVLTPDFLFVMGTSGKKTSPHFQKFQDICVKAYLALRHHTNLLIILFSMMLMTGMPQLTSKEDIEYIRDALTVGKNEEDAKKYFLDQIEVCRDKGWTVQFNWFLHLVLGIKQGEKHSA

Settings in all cases: dose 100.0 nM, time 60.0 min
Assay [1] concerns the target T1, Phosphatidylinositol 4,5-bisphosphate 3-kinase catalytic subunit delta isoform (Homo sapiens) (UniProt O00329).
T1 sequence (whole entry): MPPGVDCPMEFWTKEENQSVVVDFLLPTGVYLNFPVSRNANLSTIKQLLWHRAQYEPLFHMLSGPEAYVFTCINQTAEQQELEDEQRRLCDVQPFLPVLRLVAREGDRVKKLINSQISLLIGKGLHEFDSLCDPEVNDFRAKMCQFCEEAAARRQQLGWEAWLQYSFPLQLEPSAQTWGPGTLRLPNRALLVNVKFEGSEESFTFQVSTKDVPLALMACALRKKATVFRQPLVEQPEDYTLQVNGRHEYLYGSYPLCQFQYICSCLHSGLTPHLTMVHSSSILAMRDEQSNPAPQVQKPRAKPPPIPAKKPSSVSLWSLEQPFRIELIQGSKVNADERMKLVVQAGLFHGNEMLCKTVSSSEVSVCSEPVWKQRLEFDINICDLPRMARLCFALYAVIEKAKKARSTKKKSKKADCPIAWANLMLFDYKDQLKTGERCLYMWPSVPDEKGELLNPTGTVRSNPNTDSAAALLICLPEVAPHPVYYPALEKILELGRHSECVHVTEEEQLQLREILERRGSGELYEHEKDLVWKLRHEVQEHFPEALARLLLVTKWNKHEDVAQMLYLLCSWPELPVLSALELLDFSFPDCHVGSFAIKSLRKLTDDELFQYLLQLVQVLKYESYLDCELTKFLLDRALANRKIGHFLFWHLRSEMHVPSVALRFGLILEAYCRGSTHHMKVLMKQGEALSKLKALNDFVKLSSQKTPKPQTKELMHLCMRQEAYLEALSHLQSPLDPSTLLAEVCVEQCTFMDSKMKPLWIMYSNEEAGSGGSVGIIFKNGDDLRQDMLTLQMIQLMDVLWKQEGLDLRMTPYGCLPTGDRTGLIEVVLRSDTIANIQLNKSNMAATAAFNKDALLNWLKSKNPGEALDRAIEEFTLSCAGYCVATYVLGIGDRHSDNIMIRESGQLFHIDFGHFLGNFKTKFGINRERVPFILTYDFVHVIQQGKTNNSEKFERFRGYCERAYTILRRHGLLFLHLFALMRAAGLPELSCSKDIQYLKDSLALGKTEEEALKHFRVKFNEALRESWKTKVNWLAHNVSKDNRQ

The target of assay [2] is Phosphatidylinositol 4,5-bisphosphate 3-kinase catalytic subunit alpha isoform (Homo sapiens) (UniProt P42336).
The target in assay [3] is Phosphatidylinositol 4,5-bisphosphate 3-kinase catalytic subunit beta isoform (Homo sapiens, UniProt P42338).
Assay [4] concerns the target Phosphatidylinositol 4,5-bisphosphate 3-kinase catalytic subunit gamma isoform (Homo sapiens, UniProt P48736).

In general, inhibition refers to the drop in the measured response relative to a control, in per cent. On to `C[C@H](Oc1ccc2c(c1)OCc1ccc(-c3cccnc3)cc1-2)C(N)=O`, for which the inhibition in assay [1] is 0.7%; in assay [2] it was 16.2%; in assay [3], -4.9%.

For the molecule `C[C@H](Oc1ccc2c(c1)OCc1ccc(-c3ncccn3)cc1-2)C(N)=O`, the figures for the inhibition in assay [4] and in assay [1] were 4% and 6%, respectively.

For the molecule `CC(C)n1nccc1-c1ccc2c(c1)-c1ccc(O[C@@H](C)C(N)=O)cc1OC2`, the inhibition in assay [4] turned out to be 31.9%; in assay [1], 3.6%; in assay [2] it was 24.8%.

Take `C[C@H](Oc1ccc2c(c1)OCc1ccc(-c3cn[nH]c3)cc1-2)C(N)=O`: the inhibition in assay [4] was 19.5%; in assay [1] it was 22.7%; in assay [3], -9.1%.

As to `NC(=O)COc1ccc2c(c1)OCc1ccc(-c3cc[nH]n3)cc1-2`, the results for the inhibition in assay [1] and in assay [2] were 12.8% and 34.9%, respectively.

As for `C[C@@H](Oc1ccc2c(c1)OCc1ccc(-c3cc[nH]n3)cc1-2)C(N)=O`, the results for the inhibition in assay [4] and in assay [1] were 18.4% and 23%, respectively.

In the case of `C[C@H](Oc1ccc2c(c1)OCc1ccc(-c3ccccn3)cc1-2)C(N)=O`, the inhibition in assay [1] was -4.9%; in assay [2] it was 45.8%.

As for `C[C@H](Oc1ccc2c(c1)OCc1ccc(-c3cc[nH]n3)cc1-2)C(N)=O`, the values for the inhibition in assay [4], in assay [1] and in assay [3] were 27.3%, 20.4% and -3.5%, respectively.

On to `C[C@H](Oc1ccc2c(c1)OCc1ccc(-c3ccncn3)cc1-2)C(N)=O`, for which the inhibition in assay [1] stood at 19.9%.

`C[C@H](Oc1ccc2c(c1)OCc1ccc(-c3ncnn3C)cc1-2)C(N)=O`: the results for the inhibition in assay [4] and in assay [1] were 10.6% and 27%, respectively.

For `C[C@H](Oc1ccc2c(c1)OCc1ccc(-c3ccn(C)n3)cc1-2)C(N)=O`, the figures for the inhibition in assay [4], in assay [1] and in assay [2] were 18.3%, 11.1% and 45.8%, respectively.

For the molecule `C[C@H](Oc1ccc2c(c1)OCc1ccc(-c3ccncc3)cc1-2)C(N)=O`, the inhibition stood at 17.9% in assay [4] and 38.4% in assay [1].
